Yeast mating assay B: variants of the scFv Ab-14

Binding partner: SARS-CoV-2 spike HR2 peptide, sequence PDVDLGDISGINAS.

Parent scFv Ab-14: VH joined to VL by a (GGGGS)3 linker. Changes lie in the light chain CDRs alone.
VH: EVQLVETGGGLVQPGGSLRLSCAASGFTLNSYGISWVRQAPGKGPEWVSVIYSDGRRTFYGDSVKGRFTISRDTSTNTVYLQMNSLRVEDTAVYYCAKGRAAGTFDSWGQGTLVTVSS
VL: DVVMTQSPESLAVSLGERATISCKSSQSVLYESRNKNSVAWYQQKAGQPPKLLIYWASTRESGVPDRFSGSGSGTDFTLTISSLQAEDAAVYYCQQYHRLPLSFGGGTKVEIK

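These sequences belong to a second round, designed from the earlier measurements on random variants of the parent. Several design methods are mixed in this list. In AlphaSeq, yeast of one mating type display the scFv and yeast of the other type display the target. After mating in shaken culture at 30 °C for 16 h, diploids were selected and their barcode pairs sequenced. A regression on co-assayed BCL2-family reference pairs converts the normalised counts of each replicate to an apparent Kd. Each pool was mated in six replicate cultures.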

Each variant is given by its three light chain CDRs, as the data file delimits them; those of the parent are KSSQSVLYESRNKNSVA, WASTRES, QQYHRLPLS. Variants here have at most six changes. Values are log10 of the apparent Kd in nM; lower means stronger binding. A mean of the replicates is given; it leaves out those without a signal. "no signal" marks a missing value. The strain was present, yet no cells mated with the target were sequenced in any replicate, which points to weak or no binding. A sequence measured in both rounds can read differently, since the two assays cover different ranges.

* KLSQSVPYESRMKNSVA | NASTRMS | QQYHRLPLS -> -0.13 (6 of 6 replicates)
* KSSQSVLYESRNKNSVA | WASTRES | QQYHWLPLS -> 3.41 (4 of 6 replicates)
* HSSPSYLYESRNGNSVA | NASTRES | QQYHRLPLS -> 0.34 (6 of 6 replicates)
* KMSQSFLYESRNVNSVA | GASTRES | QQYHRLPLS -> -0.14 (6 of 6 replicates)
* KVSQSDLMESRNKNSVA | EASTRQS | QQYHRLPLS -> -0.06 (6 of 6 replicates)
* KLSQSVLYESRNSNSVA | DASQRES | QQYHRLPLS -> -0.09 (6 of 6 replicates)
* KLQQSFLYESRNKNSVA | DASTRES | QQYHRLPLS -> -0.23 (6 of 6 replicates)
* KLSQQVLYESRNKNSVA | DASTRES | QQYHRLPLS -> -0.49 (6 of 6 replicates)
* KSSQSVPFESRNKNSVA | WASTRVS | QQYHRLPLS -> 1.31 (3 of 6 replicates)
* KSSQSVLYESRNKNSIA | WASTRSS | QQYHRLPLS -> 1.88 (3 of 6 replicates)
* KSSQSVLYESRNKNSVA | WASTRMS | QQYNRLPLS -> 1.24 (6 of 6 replicates)
* KVSQSYLYESRNKNSVA | NASQRES | QQYHRLPLS -> -0.04 (6 of 6 replicates)
* KSSGSVLMEQRNKNSLA | WASTRES | QQYHRLPLS -> 3.51 (2 of 6 replicates)
* KSSQSVLYENRKENSVA | WASTRES | QQYHRLPLS -> 2.16 (3 of 6 replicates)
* KSPQSVLYESRNKNSVA | SASTRED | QSYHRLPLS -> 0.26 (6 of 6 replicates)
* KLSQSDLYESRNKNSVA | GASQRES | QQYHRLPLS -> -0.47 (6 of 6 replicates)
* KSSQSYWYESRNKNSVA | GASTRES | QQYHRLPLS -> 0.27 (6 of 6 replicates)
* KSSISWLYNSENKNSVA | WASTRES | QQYHRLPLS -> 1.65 (3 of 6 replicates)
* KLQQSVLYESRNKNSVA | SASTRCS | QQYHRLPLS -> -0.13 (6 of 6 replicates)
* KSMQSVLYESENRNSVA | SASTRES | QQYHRDPLS -> 0.81 (6 of 6 replicates)
* KSSISELIESRNKNSVA | EASTRES | QQYHRLPLS -> 0.39 (6 of 6 replicates)
* KFSESVGYESRNKNSVA | WASTRES | CQYHRLPLS -> 1.92 (5 of 6 replicates)
* KLSQSSLYESRMKNSVA | NASTRES | QQYHRLPLS -> 0.42 (6 of 6 replicates)
* KFSCGVDYESRNKNSVA | GGSTRES | QQYHRLPLS -> 0.29 (6 of 6 replicates)
* KTEFSELYESRNKNSVA | NASERES | QQYHRLPLS -> 0.15 (6 of 6 replicates)
* KLSQSQLYESRNSNSVA | DASNRES | QQYHRLPLS -> -0.19 (6 of 6 replicates)
* KLSQSVWYESRMKNSVA | NASTREQ | QQYHRLPLS -> 0.38 (6 of 6 replicates)
* KSSGSYLYESRNKNSVA | AASTRES | QQYHRLPLS -> 1.25 (6 of 6 replicates)
* KVSQSMLYESRNKNSVA | DASTRLS | QQYHRLPLS -> 0.00 (6 of 6 replicates)
* KSSESVCYESRNKNSVA | WASMRES | QQYHRLPLS -> 1.85 (4 of 6 replicates)
* KSSQSVLYESDNKNSVA | WASTRES | QQYNRLPLS -> 1.02 (6 of 6 replicates)
* KLSWSWLYESRNKNSVA | NASTRES | QQYHRLPLS -> -0.46 (6 of 6 replicates)
* KSSQSVLKESRNMNSVA | NASTRER | QQYHRLCLS -> 1.77 (6 of 6 replicates)
* KSSQSVLYESRNKNSVA | WAVTRES | QQYQRLPLS -> no signal (0 of 6 replicates)
* NQSQSWLYESRNKNSVA | GGNTRES | QQYHRLPLS -> 0.32 (6 of 6 replicates)
* KLSQSELYESRNKNSVA | SASTRES | QQYHRLPLS -> -0.08 (6 of 6 replicates)
* KSSISMLYESRMKNSVA | EASTRES | QQYHRLPLS -> 1.53 (6 of 6 replicates)
* LSSQSVLYESRNKNHVA | NASTRES | QQYHRLPLS -> 0.86 (6 of 6 replicates)
* KSSQSVLYESRNKNSVA | MASTRES | QQYHRLPLS -> 1.89 (6 of 6 replicates)
* KLSQSVLYEERNKNSVA | QASTRMS | QQYHRLPLS -> 0.28 (6 of 6 replicates)
* KSSQSVLYESRNKNSVA | WASTRES | QQYHRLPLP -> 3.61 (1 of 6 replicates)
* KLSQSVMYESRNKNSVA | NASTRMS | QQYHRLPLS -> -0.22 (6 of 6 replicates)
* KSSQSVLYESRNKNSVA | WASTRES | QQYFRLPLS -> 1.65 (4 of 6 replicates)

The authors' rule: three or more of the six replicates give a measured affinity, fewer mean a poor binder. Empty control strains, which show no peptide, gave a signal in 4% of pairings with all light chain designs; the median was 2.64 and 95% of these signals were weaker than 1.59. No background was subtracted. The parent sequence was in this pool as ten entries: three were never detected, three once, and four in most replicates, with averages from 0.34 to 2.37.

Source: Li et al. 2023 (doi:10.1038/s41467-023-39022-2), MIT Lincoln Laboratory and A-Alpha Bio; data file from the FLAb repository.